{"sequences": {"note": "Chains of the proteins cited; added tags and fusions are not shown. Residues count along the entry.", "UniProt P08246, 30-267 limits assumed": "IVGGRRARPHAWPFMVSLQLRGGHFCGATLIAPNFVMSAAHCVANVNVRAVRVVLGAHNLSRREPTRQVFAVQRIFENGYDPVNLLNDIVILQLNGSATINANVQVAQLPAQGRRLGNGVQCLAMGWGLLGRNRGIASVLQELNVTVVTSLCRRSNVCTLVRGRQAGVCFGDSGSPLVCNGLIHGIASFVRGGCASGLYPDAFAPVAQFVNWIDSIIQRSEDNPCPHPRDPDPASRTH"}, "source": "patent EP4314010B1", "about": "“MODIFIED PEPTIDOMIMETICS AND METHODS OF USE” (dated 2026)", "key": {"HEK293T cells": {"system": "HEK293T cells", "assay": "Cytoplasmic Ca2+ (Fluo-4) in HEK293T cells incubated with ELD peptides", "settings": "2 hours with Fluo-4 plus or minus peptide, compared to a control scrambled peptide", "description": "(§1) HEK293T cells were plated and incubated for 2 hours with Fluo-4 plus or minus ELD peptides, with fluorescent images taken every 30 seconds for 2-6 minutes at excitation/emission wavelengths of 488/530 nm. […] Candidate peptides ELD604 (not claimed), 607 (claimed), 601 (not claimed), and 100 (reference) were tested for resistance against protease degradation, wherein the peptides were incubated with neutrophil elastase, treated with the elastase inhibitor sivelestat at various timepoints to halt ongoing reactions, and then analyzed by HPLC (FIG. 9)."}, "neutrophil elastase": {"target": "neutrophil elastase (Homo sapiens, UniProt P08246)", "assay": "Neutrophil elastase degradation, stopped with sivelestat, HPLC", "settings": "incubated with neutrophil elastase", "description": "as §1\nThese peptides were not degraded by trypsin. Neutrophil elastase, which is one of the major proteases in the CF lung, was also tested. ELD601 was the shortest peptides generated and lacked valines, which are a substrate for neutrophil elastase. Also made was ELD604 (not claimed), which is ELD601 flanked with D-alanines to prevent exoproteases. […] Despite lacking valines, ELD601 was still degraded by elastase.\nEndogenous Orai1/store operated Ca^2+ influx have been extensively studied in HEK293T cells, so this cell type was used to understand ELD607-Orai1 interactions. […] Thapsigargin is a SERCA pump inhibitor that prevents uptake of cytosolic Ca^2+ into the endoplasmic reticulum. Thapsigargin is commonly used to stimulate Orai1/store operated Ca^2+ influx. […]"}}, "data": [{"substance": "a-HDIVNMLIH-a", "values": [{"measurement": "cytoplasmic Ca^2+", "setting": "HEK293T cells", "value": "reduced cytoplasmic calcium levels"}, {"measurement": "resistance to neutrophil elastase degradation", "setting": "neutrophil elastase", "value": "significantly more stable"}]}, {"substance": "n-VHDIVNMLIHG-n", "values": [{"measurement": "cytoplasmic Ca^2+", "setting": "HEK293T cells", "value": "reduced cytoplasmic calcium levels"}]}]}
